Values quoted from earlier work as cited in patent US6486173B2, “5-HT7 receptor antagonists” (Bristol-Myers Squibb Pharma Company, priority 1998, dated 2002).

Sequences of proteins named here, by UniProt entry; tags and fusion partners are left off.
UniProt P34969, whole entry: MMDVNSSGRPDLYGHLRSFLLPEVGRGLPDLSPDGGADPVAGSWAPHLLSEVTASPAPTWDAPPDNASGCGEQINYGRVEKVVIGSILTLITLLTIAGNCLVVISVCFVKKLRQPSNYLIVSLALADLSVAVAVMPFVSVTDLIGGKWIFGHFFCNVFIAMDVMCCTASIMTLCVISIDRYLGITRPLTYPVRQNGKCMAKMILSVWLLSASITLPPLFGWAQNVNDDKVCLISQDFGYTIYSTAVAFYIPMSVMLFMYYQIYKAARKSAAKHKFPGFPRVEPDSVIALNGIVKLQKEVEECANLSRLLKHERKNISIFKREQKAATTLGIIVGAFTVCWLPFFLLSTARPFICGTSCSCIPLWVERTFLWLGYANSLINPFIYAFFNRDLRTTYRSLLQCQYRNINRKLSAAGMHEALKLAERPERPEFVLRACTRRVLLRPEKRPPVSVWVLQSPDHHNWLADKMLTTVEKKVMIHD

Molecular target: 5-HT7 receptor (Homo sapiens, UniProt P34969)
Conditions: cited from earlier work

Substance: methiothepin
- 5-HT7 receptor affinity: high 5-HT7 receptor affinity
